Sequences of proteins named here, by UniProt entry; tags and fusion partners are left off. Residues count along the entry.
UniProt Q06187, 402-655 limits assumed: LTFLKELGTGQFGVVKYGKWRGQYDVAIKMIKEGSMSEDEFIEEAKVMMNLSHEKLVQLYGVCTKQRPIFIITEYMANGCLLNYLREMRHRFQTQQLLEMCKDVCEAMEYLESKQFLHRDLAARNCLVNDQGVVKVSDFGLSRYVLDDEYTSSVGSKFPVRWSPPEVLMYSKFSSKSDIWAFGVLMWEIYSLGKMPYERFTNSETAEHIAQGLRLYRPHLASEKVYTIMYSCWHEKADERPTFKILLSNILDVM

According to article PMC8041284, “Tunable Methacrylamides for Covalent Ligand Directed Release Chemistry” (Journal of the American Chemical Society, 2021):

Target: BTK (Homo sapiens, UniProt Q06187)
Details: 0.75 uM BTK, […] probe 3l, 15 min preincubation; 10 µM; inhibitor

## O=C(CBr)N1CC([N+](=O)[O-])([N+](=O)[O-])C1
  BTK inhibition (%): 18.5%
